Source: PubChem BioAssay (NCATS)
Several values for one entry are separate records, joined by “and”; a condition that tells them apart may be missing. Equal entries are not always repeated. Only a part is listed here, and it is no random draw. Inconclusive results are not listed. Activity calls are given as the source filed them. Unless noted, calls come from the whole dose curve; as a rule, active = well fitted curve in the direction sought with a large enough effect; inconclusive = small, poorly fitted or top-dose-only effect, or another doubt; inactive = no such curve, though single readings can be large; an effect the other way counts as inactive or inconclusive.

Assays:
[1] = biological target: Nucleoprotein (Lymphocytic choriomeningitis virus (strain Armstrong)) (UniProt P09992); test: qHTS for Inhibitors of the Functional Ribonucleoprotein Complex (vRNP) of Lymphocytic Choriomeningitis Arenaviruses (LCMV): LCMV Primary Screen - GLuc reporter signal (AID 1347086; calls by dose curve; note: % is set by controls: 0 for no effect and ±100 for the full control effect; nearly all actives have a fitted effect of over 70% in size); conditions: LCMV minigenome vRNP cell assay, Gaussia luciferase reporter; at 57.5 µM (top of the series) unless noted
[2] = qHTS of pediatric cancer cell lines to identify multiple opportunities for drug repurposing: Primary screen for TC32 cells (AID 1347089); conditions: TC32 Ewing sarcoma viability, CellTiter-Glo luminescence, 48 h; at 92.2 µM (top of the series) unless noted; note: % is set by controls: 0 for no effect and ±100 for the full control effect; nearly all actives have a fitted effect of over 60% in size
Summary of the method: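 A viability screen of TC32 cells was run over 48 h, with primary MIPE doses spanning 0.78 nM–46 µM and NPC doses 0.59 nM–46 µM. ATP luminescence (CellTiter-Glo) served as the read-out.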

[3] = qHTS of pediatric cancer cell lines to identify multiple opportunities for drug repurposing: Primary screen for DAOY cells (AID 1347090); conditions: DAOY medulloblastoma viability, CellTiter-Glo luminescence, 48 h; at 92.7 µM (top of the series);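 note: plate controls were DMSO for no effect and bortezomib for full effect; nearly all actives have a fitted effect of over 55% in size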
Summary of the method: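 Cell viability, CellTiter-Glo luminescence; 500-1,000 cells/well, 8- or 11-point titration, 48 h compound exposure at 37 degrees C, 5% CO2. Controls: DMSO neutral, bortezomib 2.3 µM final as positive.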

[4] = qHTS of pediatric cancer cell lines to identify multiple opportunities for drug repurposing: Primary screen for SJ-GBM2 cells (AID 1347091); conditions: SJ-GBM2 viability, CellTiter-Glo luminescence, 48 h; at 92.7 µM (top of the series);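 note: plate controls were DMSO neutral control for no effect and bortezomib for full effect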
Text: Drug repurposing or repositioning has been offered as a strategy for drug development in oncology programs. This approach has special potential for childhood cancers and other rare or orphan diseases, where the expected return on new drug development has been a disincentive to pharmaceuticals.
In this project we exploit the poly-pharmacology of drugs to discover new indications via phenotypic screening of a panel of 19 well-characterized cell lines derived from solid tumors seen in children and adolescents. The goal is to identify approved drugs with previously unrecognized anticancer properties that has the potential to reveal new mechanisms and biological processes involved in carcinogenesis or drug resistance. We employed a titration-based paradigm (quantitative high-throughput screening or qHTS), where all compounds were tested at multiple concentrations for their effect on cell viability. […] We screened the NIH Chemical Genomics Center (NCGC) Pharmaceutical Collection (NPC) and Mechanism Interrogation Plate (MIPE) small molecule collections of approved and investigational compounds against these cell lines; and measured metabolically active cells after 48 hours of compound treatment as a proxy for cell viability. […]
[1] Shen, M et al. Quantitative high-throughput phenotypic screening of pediatric cancer cell lines identifies multiple opportunities for drug repurposing. […]

[5] = qHTS of pediatric cancer cell lines to identify multiple opportunities for drug repurposing: Primary screen for A673 cells (AID 1347092); conditions: A673 Ewing sarcoma viability, CellTiter-Glo ATP luminescence, 48 h; at 92.7 µM (top of the series); note: % is set by controls: 0 for no effect and ±100 for the full control effect; nearly all actives have a fitted effect of over 45% in size
Summary of the method: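 Titration-based qHTS on A673 cells: MIPE compounds spanned 11 points (0.78 nM to 46 µM final), NPC compounds 8 points (0.59 nM to 46 µM final). Viability after 48 h was measured by ATP luminescence.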

[6] = qHTS of pediatric cancer cell lines to identify multiple opportunities for drug repurposing: Primary screen for SK-N-MC cells (AID 1347093); conditions: SK-N-MC viability, CellTiter-Glo luminescence, 48 h; at 92.7 µM (top of the series);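 note: plate controls were DMSO neutral control for no effect and bortezomib for full effect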
[7] = qHTS of pediatric cancer cell lines to identify multiple opportunities for drug repurposing: Primary screen for BT-37 cells (AID 1347094); conditions: BT-37 viability, CellTiter-Glo luminescence, 48 h; at 116 µM (top of the series) unless noted;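 note: plate controls were DMSO for no effect and bortezomib for full effect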
Summary of the method: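 Cells plated at 500-1,000/well in growth medium, compounds added after 5 h. MIPE tested at 11 points (from 0.78 nM), NPC at 8 points (from 0.59 nM). CellTiter-Glo luminescence after 48 h; concentration-response curves from primary screen.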

[8] = qHTS of pediatric cancer cell lines to identify multiple opportunities for drug repurposing: Primary screen for NB-EBc1 cells (AID 1347095); conditions: NB-EBc1 neuroblastoma viability, CellTiter-Glo luminescence, 48 h; at 92.7 µM (top of the series);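 note: plate controls were DMSO neutral control for no effect and bortezomib for full effect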
[9] = qHTS of pediatric cancer cell lines to identify multiple opportunities for drug repurposing: Primary screen for U-2 OS cells (AID 1347096); conditions: U-2 OS viability, CellTiter-Glo luminescence, 48 h; at 92.7 µM (top of the series) unless noted;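 note: plate controls were DMSO wells for no effect and bortezomib positive control wells for full effect; nearly all actives have a fitted effect of over 50% in size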
Summary of the method: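 Cells (500-1,000/well) rested 5 h, then received compounds for 48 h; metabolically active cells were measured by CellTiter-Glo luminescence. Final concentrations spanned up to 46 µM (MIPE, 11-point) or 0.59 nM-46 µM (NPC, 8-point) in primary screens, 11-point in follow-ups.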

[10] = qHTS of pediatric cancer cell lines to identify multiple opportunities for drug repurposing: Primary screen for Saos-2 cells (AID 1347097); conditions: Saos-2 viability, CellTiter-Glo ATP luminescence, 48 h; at 92.7 µM (top of the series); note: % is set by controls: 0 for no effect and ±100 for the full control effect; nearly all actives have a fitted effect of over 40% in size
Text: Drug repurposing or repositioning has been offered as a strategy for drug development in oncology programs. This approach has special potential for childhood cancers and other rare or orphan diseases, where the expected return on new drug development has been a disincentive to pharmaceuticals. […] In this project we exploit the poly-pharmacology of drugs to discover new indications via phenotypic screening of a panel of 19 well-characterized cell lines derived from solid tumors seen in children and adolescents. […] We employed a titration-based paradigm (quantitative high-throughput screening or qHTS), where all compounds were tested at multiple concentrations for their effect on cell viability. […] We screened the NIH Chemical Genomics Center (NCGC) Pharmaceutical Collection (NPC) and Mechanism Interrogation Plate (MIPE) small molecule collections of approved and investigational compounds against these cell lines; and measured metabolically active cells after 48 hours of compound treatment as a proxy for cell viability. […] Assay Submitter: Nathalia J. Martinez, National Center for Advancing Translational Sciences, National Institutes of Health, Rockville, MD, USA; email: natalia.martinez@nih.gov Shen, M et al. Quantitative high-throughput phenotypic screening of pediatric cancer cell lines identifies multiple opportunities for drug repurposing. […]

CCC(=O)N(c1ccccc1)C1(COC)CCN(CCn2nnn(CC)c2=O)CC1
inactive: activity change, negative = inhibition [1] 25.2% [at 115 µM] | activity change, negative = cytotoxic [2] 3.51% | activity change, negative = cytotoxic [3] -1.84% | activity change, negative = cytotoxic [4] -1.35% | activity change, negative = cytotoxic [5] -13.1% | activity change, negative = cytotoxic [6] -1.19% | activity change, negative = cytotoxic [7] -0.0411% | activity change, negative = cytotoxic [8] -10.9% | activity change, negative = cytotoxic [9] -0.36% | activity change, negative = cytotoxic [10] -22.1%

CN(CCCl)CCCl
inactive: activity change, negative = inhibition [1] 6.46% and 24.8% | activity change, negative = cytotoxic [2] 0.236% [at 45.8 µM] and 3.11% [at 45.8 µM] | activity change, negative = cytotoxic [7] -16.8% [at 57.3 µM] | activity change, negative = cytotoxic [9] 9.24% [at 46 µM] and 5.64% [at 46 µM]

CCC(=O)N(c1ccccc1)C1(COC)CCN(CCc2cccs2)CC1
inactive: activity change, negative = cytotoxic [2] -2.93% | activity change, negative = cytotoxic [3] -12.7% | activity change, negative = cytotoxic [4] -17.4% | activity change, negative = cytotoxic [7] -24.9% | activity change, negative = cytotoxic [8] -12.8% | activity change, negative = cytotoxic [9] -12.1% | activity change, negative = cytotoxic [10] -26.6%
